Results: paper PMC11217458

Biological target: human ACE2 (angiotensin-converting enzyme 2), full length, N-terminal FLAG tag (human) (UniProt Q9BYF1)
Assay: cryo-EM structure; ACE2-SIT1 complex co-expressed and co-purified in GDN (20 mM HEPES pH 7.5, 150 mM NaCl, 0.02% GDN), incubated with 10 mM L-pipecolate or 10 mM glycine; single-particle cryo-EM, C2 symmetry for the 2:2 complexes

human ACE2 (angiotensin-converting enzyme 2), full length, N-terminal FLAG tag (from UniProt Q9BYF1 18-805) (natural protein; N-linked glycans at Asn90, Asn103, Asn322, Asn432, Asn546, Asn690; O-glycosylation at Thr730; N-linked glycans at Asn90, Asn103, Asn322, Asn432, Asn546, Asn690; O-glycosylation at Thr730; other documents disagree on this pair)
stoichiometry N: 2
